Assay results reported in patent US20260041706A1, “MUCUS MEMBRANE FORMULATIONS AND USES THEREOF” (priority 2022, published 2026).

Assay: In vivo biodistribution and nasal residence (DiR fluorescence, IVIS)

Substance | nasal residence of gellan and pectin mixture on addition of surfactant (8 h post-nasal administration, DiR-loaded) | fluorescence signal in nasal cavity (in words) (even at 15 min after administration)
sorbitan monolaurate [Span-20] | significantly enhanced the nasal residence | –
1, 1′-Dioctadecyl-3,3,3′,3′-Tetramethylindotricarbocyanine Iodide [Free DiR, reference compound] | – | negligible fluorescence signal
